The target of the assay is T1, human neutrophil elastase (HNE) (Homo sapiens, UniProt P08246).
T1 sequence (P08246 30-247): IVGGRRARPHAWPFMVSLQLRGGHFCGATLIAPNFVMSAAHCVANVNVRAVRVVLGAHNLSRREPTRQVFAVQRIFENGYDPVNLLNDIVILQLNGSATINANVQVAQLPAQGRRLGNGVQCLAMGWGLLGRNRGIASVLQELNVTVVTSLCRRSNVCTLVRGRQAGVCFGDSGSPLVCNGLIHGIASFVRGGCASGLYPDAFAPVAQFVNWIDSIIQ
The experiment in a line: HNE enzymatic activity assay, chromogenic p-NA substrate, absorbance at […] nm. In kind it is biochemical. The arrangement: gene ELANE.

pIC50: −log10 of the molar value.

The pIC50 is the IC50 on a negative log10 scale, so that one unit is a factor of ten. With `CC(C)(C)C(=O)Oc1ccc(S(=O)(=O)Nc2ccccc2C(=O)NCC(=O)O)cc1` [sivelestat sodium], the pIC50 was 5.44.

Values taken from paper PMC4503950, “EGCG reverses human neutrophil elastase-induced migration in A549 cells by directly binding to HNE and by regulating α1-AT” (Scientific Reports, 2015).
